## Apparent affinities of Ab-91 variants for a coronavirus HR2 peptide

Source: Engelhart et al. 2022 (doi:10.1038/s41597-022-01779-4), MIT Lincoln Laboratory and A-Alpha Bio; data file from the FLAb repository.

All variants were tested on one target, the spike HR2 peptide PDVDLGDISGINAS (SARS-CoV-2).

Parent: Ab-91, a human scFv built as VL, the linker GGGGSGGGGSGGGGS, VH. Only the CDRs of the heavy chain vary.
VL: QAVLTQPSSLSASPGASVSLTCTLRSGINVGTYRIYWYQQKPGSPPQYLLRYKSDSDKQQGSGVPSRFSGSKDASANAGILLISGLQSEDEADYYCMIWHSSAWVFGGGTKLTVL
VH: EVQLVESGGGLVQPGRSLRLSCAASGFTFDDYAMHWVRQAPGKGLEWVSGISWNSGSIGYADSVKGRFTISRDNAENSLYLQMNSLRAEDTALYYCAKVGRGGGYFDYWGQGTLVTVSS

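The starting antibody came from a phage panning campaign against this peptide. Variants in AAYL51 differ from the parent at up to three CDR positions; double and triple changes were sampled at random. AlphaSeq pools MATa yeast showing the antibodies with MATalpha yeast showing the peptide. Pairs that bind mate more often; barcode pairs of the diploids are counted by sequencing. Read counts were normalised to the haploid input and turned into Kd by a linear fit to BCL2-family pairs of known affinity, for each replicate. The assay was run in three technical replicates.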

The parent's heavy chain CDRs are GFTFDDYAMH, GISWNSGSIGYADSVK, VGRGGGYFDY; each variant's own CDRs replace them letter for letter.
Scale: log10 of Kd in nM, estimated from mating counts; low values are strong binders.
A mean of the replicates is given; it leaves out those without a signal.
"ND" marks a missing value. The strain was present, yet no cells mated with the target were sequenced in that replicate, which points to weak or no binding.
As a blank, each scFv also met three strains without target: over library AAYL51, 21% of these pairings were detected, typically at 4.54 and seldom below 3.26. The control count says in how many pairings with the empty strains this scFv gave a signal.
Parent in this assay: reference entry 1.86, copy in this library 0.88.

With GFTFDDYAMH | GISWHTGEIGYADSVK | VGRGGGYFDY the result was 4.58, ND, ND (controls 4 of 9).
With GFYFDDYAMH | GISWNSGSIGYADSVK | VGRNGGYFDY the result was ND, ND, ND (controls 0 of 9).
With GFTFDDYAMH | WISWNSESIGYADSVK | VGRGIGYFDY the result was ND, ND, 2.41 (controls 0 of 9).
With FVTFDDYAMH | GISWNSGSIGYADSVK | VGRGGEYFDY the result was 2.66, ND, ND (controls 0 of 9).
With GFTFNDYAMH | GISWNSGSIGYADSVK | VGRGYGYFDS the result was 4.14, ND, 5.21 (mean 4.68; controls 0 of 9).
With GFTFDDYAMH | GISWNSGSIGQADSCK | SGRGGGYFDY the result was ND, 4.97, ND (controls 1 of 9).
With GPTFDDYAMF | GISWNSGSIGYADSVK | VGRGSGYFDY the result was 3.97, ND, ND (controls 2 of 9).
With GFTFDDYAMH | HISWNSISIKYADSVK | VGRGGGYFDY the result was ND, 5.52, ND (controls 0 of 9).
With GFVFDDYAMH | GISWNSGSIGYADSVK | VGGDGGYFDY the result was ND, ND, ND (controls 0 of 9).
With GFTFWDYAMH | GISWNTGGIGYADSVK | VGRGGGYFDY the result was 4.80, ND, 5.03 (mean 4.91; controls 4 of 9).
With GRTFDDYAMH | GISWNSGSIGYEDSVK | VNRGGGYFDY the result was ND, ND, ND (controls 1 of 9).
With GFTFDDYANH | GISWDSLSIGYADSVK | VGRGGGYFDY the result was ND, 4.60, 4.81 (mean 4.70; controls 5 of 9).
With GFTFDGYAMH | GISHNSGSIGYADSVK | VGRGGGVFDY the result was 3.75, 4.55, ND (mean 4.15; controls 6 of 9).
With GETFDDYAMH | GISWNSGSVGYADSVK | VSRGGGYFDY the result was ND, ND, ND (controls 0 of 9).
With GFTFDDYAMH | GISWNSGSYGYADSVK | VGRGMGYFTY the result was 3.93, ND, ND (controls 1 of 9).
With GGTFDDYAMH | GISWNYGSIGYADSVK | VGRGGGYFDY the result was ND, ND, ND (controls 0 of 9).
With GFTFDDYAMH | YISWNSGSIGYADSVD | VGRGGWYFDY the result was ND, ND, ND (controls 0 of 9).
With GFTFDDYAMH | RISLGSGSIGYADSVK | VGRGGGYFDY the result was 4.83, 4.56, ND (mean 4.69; controls 4 of 9).
With TFTFDDYAMC | GISWNSGSIGYADSVK | VGWGGGYFDY the result was 3.81, ND, ND (controls 6 of 9).
With GFTFDDYAMH | GIKWGSGSIGYADSVK | VGRGGGYFDQ the result was ND, 4.19, ND (controls 3 of 9).
With GFTFDDYAMH | GISWNRGWIGYAESVK | VGRGGGYFDY the result was ND, 4.67, 3.71 (mean 4.19; controls 2 of 9).
With GFTFDAYAMH | GISWNSGSIGYAYSVK | VGRGGGYFVY the result was 3.23, 3.50, 3.06 (mean 3.26; controls 0 of 9).
With GFTMDDYASH | GISWNSGSIGYADSVK | VGRGGGYFDY the result was 5.27, ND, ND (controls 2 of 9).
With GFTFDDYAMH | GISWNSISIGYAKSVK | VGRGGGYFGY the result was 4.12, ND, ND (controls 0 of 9).
With GFYFDDYAMH | KISWNSGSIGYADSVK | VGRGGGKFDY the result was 3.88, ND, ND (controls 0 of 9).
With GFTMDDYVMH | GISWNSGSIGYADSVK | VGRGGGYFMY the result was ND, ND, ND (controls 0 of 9).
With GFTMDDYAGH | GTSWNSGSIGYADSVK | VGRGGGYFDY the result was ND, ND, ND (controls 1 of 9).
With GFTFDDYAMH | GISWNSWSIGYADSVK | VCRGGGYFAY the result was ND, ND, ND (controls 3 of 9).
With GFTFDDYYMH | GISWNSGSIGYEDKVK | VGRGGGYFDY the result was 4.37, 4.36, 5.38 (mean 4.71; controls 5 of 9).
With GTTFDDYAMV | GISWNSGSIGYADPVK | VGRGGGYFDY the result was ND, ND, ND (controls 0 of 9).
With GFTFDDTAMH | GISWNSNSIGYADSVK | VGRGGGYLDY the result was ND, ND, 2.02 (controls 1 of 9).
With GFTFDDYAMS | GISWNSGSIGYAISVK | VVRGGGYFDY the result was 5.88, ND, ND (controls 3 of 9).
With GFTFDDYAME | FISWNSGSIGYADSVK | VGRSGGYFDY the result was ND, ND, 3.32 (controls 2 of 9).

Excerpt, the first 3 entries:

| CDR-H1 | CDR-H2 | CDR-H3 | log10 Kd, replicates | mean log10 Kd (nM) | empty controls |
|---|---|---|---|---|---|
| GFTFDDYAMH | GISWHTGEIGYADSVK | VGRGGGYFDY | 4.58, ND, ND | 4.58 | 4/9 |
| GFYFDDYAMH | GISWNSGSIGYADSVK | VGRNGGYFDY | ND, ND, ND | ND | 0/9 |
| GFTFDDYAMH | WISWNSESIGYADSVK | VGRGIGYFDY | ND, ND, 2.41 | 2.41 | 0/9 |